# Source: patent publication US11498904B2, “Substituted biaryl compounds as indoleamine 2,3-dioxygenase (IDO) inhibitors” (MERCK SHARP & DOHME CORP., priority 2017, dated 2022)
# Protein sequences, listed by entry. Tags and fused reporters are not part of them.
# UniProt P14902, whole entry: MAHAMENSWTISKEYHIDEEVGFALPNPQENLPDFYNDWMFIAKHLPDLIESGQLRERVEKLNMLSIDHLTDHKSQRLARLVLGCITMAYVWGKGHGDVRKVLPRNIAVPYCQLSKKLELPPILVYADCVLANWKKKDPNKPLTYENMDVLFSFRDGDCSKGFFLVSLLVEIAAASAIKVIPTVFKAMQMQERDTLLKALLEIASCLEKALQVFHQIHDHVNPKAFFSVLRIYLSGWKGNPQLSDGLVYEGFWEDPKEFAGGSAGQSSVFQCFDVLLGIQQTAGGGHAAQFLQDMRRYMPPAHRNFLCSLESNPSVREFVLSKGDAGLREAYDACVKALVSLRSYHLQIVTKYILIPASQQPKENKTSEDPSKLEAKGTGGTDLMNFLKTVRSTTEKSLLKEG
# Structures can show the parent of a compound that is named as a salt.
# Biological target: IDO1 (Homo sapiens, UniProt P14902)
# Test: IDO1 Cellular Assay in HeLa Cells Stimulated with IFNγ
# Type: cell-based
# Settings: HeLa cells stimulated with IFNγ 100 ng/mL, 300 uM L-tryptophan, about 48 hours, fluorescence readout; read-out: HeLa Cell Potency, IC50
row,Compound,IC50 [nM]
1,"Cc1cc(OC(F)F)nc(C)c1-c1ccc(C2(NC(=O)c3ccc(C#N)cc3)CCC2)cc1 [Example 38, 4-cyano-N-(1-(4-(6-(difluoromethoxy)-2,4-dimethylpyridin-3-yl)phenyl)cyclobutyl)benzamide]",6.1
2,"Cc1cc(C2CC2)ncc1-c1ccc(C2(NC(=O)c3ccc(C#N)cc3)CCC2)nc1 [Example 42, 4-Cyano-N-(1-(6′-cyclopropyl-4′-methyl-[3,3′-bipyridin]-6-yl)cyclobutyl)benzamide]",4.9
3,"Cc1cc(OC(F)F)ncc1-c1ccc(C2(NC(=O)C34CC(C#N)(C3)C4)CCC2)nc1 [Example 43, 3-Cyano-N-(1-(6′-(difluoromethoxy)-4′-methyl-[3,3′-bipyridin]-6-yl)cyclobutyl)bicyclo[1.1.1]-pentane-1-carboxamide]",524
4,"Cc1cc(C2CC2)ncc1-c1ccc(C2(NC(=O)C34CC(C#N)(C3)C4)CCC2)nc1 [Example 44, 3-Cyano-N-(1-(6′-cyclopropyl-4′-methyl-[3,3′-bipyridin]-6-yl)cyclobutyl)bicyclo[1.1.1]pentane-1-carboxamide]",308
5,"O=C(NC1(c2ccc(-c3cnc(C(F)(F)F)cc3CO)cc2)COC1)c1ccc(F)cc1 [Example 45, 4-Fluoro-N-(3-(4-(4-(hydroxymethyl)-6-(trifluoromethyl)pyridin-3-yl)phenyl)oxetan-3-yl)benzamide]",1.5
6,"O=C(NC1(c2ccc(-c3cnc(C(F)(F)F)cc3CO)cc2)CC1)c1ccc(Cl)cc1 [Example 46, 4-chloro-N-(1-(4-(4-(hydroxymethyl)-6-(trifluoromethyl)pyridin-3-yl)phenyl)cyclopropyl)benzamide]",2.1

# The remaining lines, values ahead:
row,IC50 [nM],Compound
1,12.6,"Cc1cc(OC(F)F)ncc1-c1ccc(C2(NC(=O)c3ccc(C#N)cc3)CCC2)cc1 [Example 39, 4-cyano-N-(1-(4-(6-(difluoromethoxy)-4-methylpyridin-3-yl)phenyl)cyclobutyl)benzamide]"
2,8.4,"CC(C)Oc1cc(C(F)F)c(-c2ccc(C3(NC(=O)c4ccc(C#N)cc4)CCC3)cc2)cn1 [Example 41, 4-Cyano-N-(1-(4-(4-(difluoromethyl)-6-isopropoxypyridin-3-yl)phenyl)cyclobutyl)benzamide]"
3,2.1,"CC(C)(O)c1cc(OC2CC2)ncc1-c1ccc(C2(NC(=O)c3ccc(F)cc3)CC2)cc1 [Example 47, N-(1-(4-(6-cyclopropoxy-4-(2-hydroxypropan-2-yl)pyridin-3-yl)phenyl)cyclopropyl)-4-fluorobenzamide]"
4,4.2,"O=C(NC1(c2ccc(-c3cnc(OC4CC4)cc3CO)cc2)CC1)c1ccc(F)cc1 [Example 48, N-(1-(4-(6-cyclopropoxy-4-(hydroxymethyl)pyridin-3-yl)phenyl)cyclopropyl)-4-fluorobenzamide]"
5,2.7,"CC(C)Oc1cc(CO)c(-c2ccc(C3(NC(=O)c4ccc(F)cc4)CC3)cc2)cn1 [Example 49, 4-fluoro-N-(1-(4-(4-(hydroxymethyl)-6-isopropoxypyridin-3-yl)phenyl)cyclopropyl)benzamide]"
6,1.5,"C[C@H](O)c1cc(C(F)(F)F)ncc1-c1ccc(C2(NC(=O)c3ccc(F)cc3)CC2)cc1 [Example 50, (S)-4-fluoro-N-(1-(4-(4-(1-hydroxyethyl)-6-(trifluoromethyl)pyridin-3-yl)phenyl)cyclopropyl)benzamide]"
7,2.3,"C[C@@H](O)c1cc(C(F)(F)F)ncc1-c1ccc(C2(NC(=O)c3ccc(F)cc3)CC2)cc1 [Example 51, (R)-4-fluoro-N-(1-(4-(4-(1-hydroxyethyl)-6-(trifluoromethyl)pyridin-3-yl)phenyl)cyclopropyl)benzamide, 2,2,2-trifluoroacetate salt]"
8,2.2,"CC(C)(O)c1cc(C(F)(F)F)ncc1-c1ccc(C2(NC(=O)c3ccc(F)cc3)CCC2)cc1 [Example 52, 4-fluoro-N-(1-(4-(4-(2-hydroxypropan-2-yl)-6-(trifluoromethyl)pyridin-3-yl)phenyl)cyclobutyl)benzamide]"
9,4.3,O=C(NC1(c2ccc(-c3cnc(C(F)(F)F)cc3CO)cc2)CCC1)c1ccc(F)cc1 [Example 53]
10,2.2,"CC(C)(O)c1cc(OC2CC2)ncc1-c1ccc(C2(NC(=O)c3ccc(F)cc3)CCC2)cc1 [Example 54, N-(1-(4-(6-cyclopropoxy-4-(2-hydroxypropan-2-yl)pyridin-3-yl)phenyl)cyclobutyl)-4-fluorobenzamide]"
